Results reported in publication PMC3894222, “Serotonin Signaling in Schistosoma mansoni: A Serotonin–Activated G Protein-Coupled Receptor Controls Parasite Movement” (PLoS Pathogens, 2014).

Target: T1, Sm5HTR (Schistosoma mansoni, UniProt G4V5G4)
T1 construct: gene 5HT-1; full length, 463 residues, 52 kDa; pCI-neo; transiently transfected HEK 293 cells
T1 sequence (G4V5G4 1-463): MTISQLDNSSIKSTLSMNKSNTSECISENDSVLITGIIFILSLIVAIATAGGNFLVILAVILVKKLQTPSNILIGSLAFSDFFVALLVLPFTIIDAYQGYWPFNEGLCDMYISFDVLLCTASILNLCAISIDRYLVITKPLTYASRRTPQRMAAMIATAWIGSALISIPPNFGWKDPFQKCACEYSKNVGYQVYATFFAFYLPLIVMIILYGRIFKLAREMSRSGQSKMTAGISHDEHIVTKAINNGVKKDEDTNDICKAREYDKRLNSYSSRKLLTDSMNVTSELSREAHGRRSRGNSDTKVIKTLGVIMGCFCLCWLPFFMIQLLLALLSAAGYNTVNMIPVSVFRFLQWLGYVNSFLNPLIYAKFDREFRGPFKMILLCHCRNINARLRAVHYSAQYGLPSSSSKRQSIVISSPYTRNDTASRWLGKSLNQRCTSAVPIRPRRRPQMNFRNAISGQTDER
Experiment: cAMP fluorescent competitive immunoassay, transfected HEK […] cells
Format: cell-based

NCCc1c[nH]c2ccc(O)cc12 [5HT, serotonin]
EC50: 61.7 nM
